Target: PI3K (p110α/p85α) (Homo sapiens, UniProt P42336)
Assay: ELISA
Format: binding

Chains of the proteins cited; added tags and fusions are not shown. Residues count along the entry.
UniProt P42336, whole entry: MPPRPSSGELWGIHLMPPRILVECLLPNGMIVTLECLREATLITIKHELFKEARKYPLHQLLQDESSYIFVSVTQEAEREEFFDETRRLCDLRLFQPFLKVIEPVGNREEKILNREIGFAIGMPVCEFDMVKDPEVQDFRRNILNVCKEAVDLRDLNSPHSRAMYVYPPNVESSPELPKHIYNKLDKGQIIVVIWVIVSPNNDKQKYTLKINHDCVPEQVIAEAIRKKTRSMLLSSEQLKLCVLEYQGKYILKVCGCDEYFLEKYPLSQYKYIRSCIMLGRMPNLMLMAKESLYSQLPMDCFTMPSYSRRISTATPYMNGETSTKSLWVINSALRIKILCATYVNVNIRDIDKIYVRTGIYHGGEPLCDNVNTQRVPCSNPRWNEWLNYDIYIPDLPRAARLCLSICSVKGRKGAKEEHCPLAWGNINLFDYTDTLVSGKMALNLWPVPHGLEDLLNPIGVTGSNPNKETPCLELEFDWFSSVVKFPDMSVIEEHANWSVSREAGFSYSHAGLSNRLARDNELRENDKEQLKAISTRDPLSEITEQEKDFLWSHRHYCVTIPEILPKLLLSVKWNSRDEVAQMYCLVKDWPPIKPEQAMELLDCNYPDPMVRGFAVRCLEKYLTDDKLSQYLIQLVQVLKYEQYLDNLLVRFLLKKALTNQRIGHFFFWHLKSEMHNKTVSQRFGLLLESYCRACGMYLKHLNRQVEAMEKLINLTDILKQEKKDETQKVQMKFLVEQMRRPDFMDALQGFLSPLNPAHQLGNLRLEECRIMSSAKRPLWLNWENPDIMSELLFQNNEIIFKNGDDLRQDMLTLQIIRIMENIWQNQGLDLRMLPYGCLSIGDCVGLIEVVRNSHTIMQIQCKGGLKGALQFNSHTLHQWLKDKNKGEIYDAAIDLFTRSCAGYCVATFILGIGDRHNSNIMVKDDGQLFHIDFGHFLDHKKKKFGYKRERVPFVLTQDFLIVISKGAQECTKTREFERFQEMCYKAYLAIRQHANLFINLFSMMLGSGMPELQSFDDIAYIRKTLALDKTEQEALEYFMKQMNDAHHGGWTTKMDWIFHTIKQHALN
UniProt P27986, 2-724 partner limits assumed: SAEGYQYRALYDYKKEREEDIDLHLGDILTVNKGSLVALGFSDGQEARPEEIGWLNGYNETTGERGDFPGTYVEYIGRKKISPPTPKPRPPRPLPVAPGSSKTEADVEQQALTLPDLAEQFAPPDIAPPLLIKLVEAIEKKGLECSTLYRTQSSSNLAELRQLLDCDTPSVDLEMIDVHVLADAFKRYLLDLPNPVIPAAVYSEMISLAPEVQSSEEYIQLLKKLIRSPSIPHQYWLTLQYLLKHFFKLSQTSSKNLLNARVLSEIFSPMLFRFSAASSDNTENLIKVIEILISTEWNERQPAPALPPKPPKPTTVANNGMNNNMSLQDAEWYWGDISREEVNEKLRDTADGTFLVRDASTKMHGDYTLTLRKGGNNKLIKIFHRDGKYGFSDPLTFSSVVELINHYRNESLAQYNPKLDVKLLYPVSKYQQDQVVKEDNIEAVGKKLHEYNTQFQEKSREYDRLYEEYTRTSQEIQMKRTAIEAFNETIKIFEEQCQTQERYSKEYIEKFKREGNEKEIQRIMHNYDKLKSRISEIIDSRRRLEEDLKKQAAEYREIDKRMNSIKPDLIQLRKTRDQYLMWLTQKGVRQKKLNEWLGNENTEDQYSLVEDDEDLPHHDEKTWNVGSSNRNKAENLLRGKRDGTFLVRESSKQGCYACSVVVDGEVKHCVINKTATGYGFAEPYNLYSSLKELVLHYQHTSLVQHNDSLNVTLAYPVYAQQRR

Row | Kd [µM] | Compound
1 | 32 | NC(=O)CC[C@H](NC(=O)CC[C@@H](NC(=O)c1nccnc1N)C(=O)N1CCc2ccccc21)C(=O)O
2 | 5 | NC(=O)CC[C@H](NC(=O)CC[C@H](NC(=O)c1nccnc1N)C(=O)N1CCc2ccccc21)C(=O)O
3 | 9 | Cc1ccccc1OCc1cn([C@H](CCC(=O)N[C@@H](CCC(N)=O)C(=O)O)C(=O)Nc2ccc3c(cnn3C(F)F)c2)nn1
